Literature values, collected in US10874685B2, “Pancreatic cancer therapy and diagnosis” (Deutsches Krebsforschungszentrum Stiftung des Öffentlichen …, priority 2014, dated 2020).

Test system: pituitary tumor cells
Conditions: cited from earlier work

Structure (SMILES): CCCN1CCC[C@@H]2Cc3n[nH]cc3C[C@H]21 [quinpirole]
- cancer cell viability: decreased significantly
